{"source": "paper PMC11855866", "about": "“Combining Sulfonylureas with Anticancer Drugs: Evidence of Synergistic Efficacy with Doxorubicin In Vitro and In Vivo” (International Journal of Molecular Sciences, 2025)", "key": {"MCF-7 cells": {"test_system": "MCF-7 cells", "assay": "MTT cytotoxicity / synergy assay, 72 h, MCF-7", "format": "cell-based", "details": "Homo sapiens; for viability at 0.45 µM: MCF7, read-out: MCF-7 cell viability, DOXO 0.450 µM", "description": "Stock solutions of the tested compounds were first prepared in DMSO at 200-fold the intended final concentration. […] The cells were treated for 72 h under the same conditions.\nFollowing treatment, 25 μL of MTT solution was added to each well, and the plates were incubated for 2 h at 37 °C. […] IC₅₀ values, indicating the concentration required to reduce cell viability by 50% compared to untreated controls (set as 100% viability), were calculated using GraphPad Prism 9 software (GraphPad Software, San Diego, CA, USA). All data from this preliminary cytotoxic assay were analyzed by ANOVA followed by Tukey’s post hoc test for multiple comparisons, with significance set at p < 0.05. A similar statistical approach was used for the rest of the experimental work presented in this study."}, "U-87MG cells": {"test_system": "U-87MG cells", "assay": "MTT cytotoxicity / synergy assay, 72 h, U-87MG", "details": "Homo sapiens"}, "HuH7 cells": {"test_system": "HuH7 cells", "assay": "MTT cytotoxicity / synergy assay, 72 h, HuH7", "details": "Homo sapiens; for viability at 0.163 µM: Huh-7, read-out: HuH7 cell viability, DOXO 0.163 µM"}, "HepG2 cells": {"test_system": "HepG2 cells", "assay": "MTT cytotoxicity / synergy assay, 72 h, HepG2", "details": "Homo sapiens"}, "[1]": {"details": "MCF7, read-out: MCF-7 cell viability"}, "[2]": {"details": "read-out: U-87MG cell viability"}, "[3]": {"details": "HepG2, read-out: HepG2 cell viability"}}, "note": "Like-named read-outs stand apart in the source and are kept apart here.", "data": [{"smiles": "COc1cccc2c1C(=O)c1c(O)c3c(c(O)c1C2=O)C[C@@](O)(C(=O)CO)C[C@@H]3O[C@H]1C[C@H](N)[C@H](O)[C@H](C)O1", "note": "[DOXO, Doxorubicin]", "values": [{"measurement": "viability at 0.113 µM", "setting": "MCF-7 cells; [1]", "value": "77 ± 1.2", "unit": "%"}, {"measurement": "viability at 0.225 µM", "setting": "MCF-7 cells; [1]", "value": "75.7 ± 1", "unit": "%"}, {"measurement": "viability at 0.113 µM", "setting": "MCF-7 cells; MCF7, read-out: MCF-7 cell viability, DOXO 0.113 µM, GLIM 0 µM", "value": "70.2 ± 0.5", "unit": "%"}, {"measurement": "viability at 0.113 µM", "setting": "MCF-7 cells; MCF7, read-out: MCF-7 cell viability, DOXO 0.113 µM, GLIQ 0 µM", "value": "74.2 ± 1.6", "unit": "%"}, {"measurement": "viability at 0.225 µM", "setting": "MCF-7 cells; MCF7, read-out: MCF-7 cell viability, DOXO 0.225 µM, GLIM 0 µM", "value": "71.2 ± 0.7", "unit": "%"}, {"measurement": "viability at 0.225 µM", "setting": "MCF-7 cells; MCF7, read-out: MCF-7 cell viability, DOXO 0.225 µM, GLIQ 0 µM", "value": "73.9 ± 1", "unit": "%"}, {"measurement": "viability at 0.45 µM", "setting": "MCF-7 cells; GLIM 0 µM", "value": "50.8 ± 0.4", "unit": "%"}, {"measurement": "viability at 0.45 µM", "setting": "MCF-7 cells; GLIQ 0 µM", "value": "50.1 ± 1", "unit": "%"}, {"measurement": "viability at 0.26 µM", "setting": "U-87MG cells; [2]", "value": "75.2 ± 1", "unit": "%"}, {"measurement": "viability at 0.52 µM", "setting": "U-87MG cells; [2]", "value": "73.9 ± 0.8", "unit": "%"}, {"measurement": "viability at 0.26 µM", "setting": "U-87MG cells; read-out: U-87MG cell viability, DOXO 0.260 µM, CHLO 0 µM", "value": "70.6 ± 0.6", "unit": "%"}, {"measurement": "viability at 0.26 µM", "setting": "U-87MG cells; read-out: U-87MG cell viability, DOXO 0.260 µM, GLIM 0 µM", "value": "73.3 ± 0.3", "unit": "%"}, {"measurement": "viability at 1.04 µM", "setting": "U-87MG cells; read-out: U-87MG cell viability, DOXO 1.040 µM (3rd column), CHLO 0 µM", "value": "49.6 ± 0.7", "unit": "%"}, {"measurement": "viability at 1.04 µM", "setting": "U-87MG cells; read-out: U-87MG cell viability, DOXO 1.040 µM (3rd column), GLIQ 0 µM", "value": "50.2 ± 0.5", "unit": "%"}, {"measurement": "viability at 1.04 µM", "setting": "U-87MG cells; read-out: U-87MG cell viability, DOXO 1.040 µM, GLIM 0 µM", "value": "50.1 ± 0.7", "unit": "%"}, {"measurement": "viability at […]", "setting": "HuH7 cells; Huh-7, read-out: HuH7 cell viability", "value": "95.3 ± 0.9", "unit": "%"}, {"measurement": "viability at 0.163 µM", "setting": "HuH7 cells; CHLO 0 µM", "value": "94.3 ± 1.3", "unit": "%"}, {"measurement": "viability at 0.163 µM", "setting": "HuH7 cells; GLIM 0 µM", "value": "96.3 ± 0.5", "unit": "%"}, {"measurement": "viability at 0.163 µM", "setting": "HuH7 cells; GLIQ 0 µM", "value": "94.8 ± 0.7", "unit": "%"}, {"measurement": "viability at 0.18 µM", "setting": "HepG2 cells; [3]", "value": "80.1 ± 1.4", "unit": "%"}, {"measurement": "viability at 0.36 µM", "setting": "HepG2 cells; [3]", "value": "70.1 ± 0.5", "unit": "%"}, {"measurement": "viability at 0.72 µM", "setting": "HepG2 cells; [3]", "value": "50.1 ± 1.7", "unit": "%"}, {"measurement": "viability at 0.18 µM", "setting": "HepG2 cells; HepG2, read-out: HepG2 cell viability, DOXO 0.180 µM, CHLO 0 µM", "value": "79.1 ± 0.8", "unit": "%"}, {"measurement": "viability at 0.18 µM", "setting": "HepG2 cells; HepG2, read-out: HepG2 cell viability, DOXO 0.180 µM, GLIQ 0 µM", "value": "81.1 ± 1", "unit": "%"}, {"measurement": "viability at 0.36 µM", "setting": "HepG2 cells; HepG2, read-out: HepG2 cell viability, DOXO 0.360 µM, GLIM 0 µM", "value": "69.2 ± 1.6", "unit": "%"}, {"measurement": "viability at 0.72 µM", "setting": "HepG2 cells; HepG2, read-out: HepG2 cell viability, DOXO 0.720 µM, CHLO 0 µM", "value": "50.6 ± 1.3", "unit": "%"}, {"measurement": "viability at 0.72 µM", "setting": "HepG2 cells; HepG2, read-out: HepG2 cell viability, DOXO 0.720 µM, GLIQ 0 µM", "value": "51.6 ± 0.4", "unit": "%"}]}]}
